One may read the EC50 as the midpoint of the concentration-response curve. Read a low EC50 as an effect from little substance.

The target of this assay is T1, PTH1R‐P132L (Homo sapiens, UniProt Q03431, P132L).
T1 construct: expressed in transfected cells; plasmid TG-395 in pCDNA1
T1 sequence (Q03431 27-593 E90Y/S91D/E92V/E93P/K95Y/E96A/P132L): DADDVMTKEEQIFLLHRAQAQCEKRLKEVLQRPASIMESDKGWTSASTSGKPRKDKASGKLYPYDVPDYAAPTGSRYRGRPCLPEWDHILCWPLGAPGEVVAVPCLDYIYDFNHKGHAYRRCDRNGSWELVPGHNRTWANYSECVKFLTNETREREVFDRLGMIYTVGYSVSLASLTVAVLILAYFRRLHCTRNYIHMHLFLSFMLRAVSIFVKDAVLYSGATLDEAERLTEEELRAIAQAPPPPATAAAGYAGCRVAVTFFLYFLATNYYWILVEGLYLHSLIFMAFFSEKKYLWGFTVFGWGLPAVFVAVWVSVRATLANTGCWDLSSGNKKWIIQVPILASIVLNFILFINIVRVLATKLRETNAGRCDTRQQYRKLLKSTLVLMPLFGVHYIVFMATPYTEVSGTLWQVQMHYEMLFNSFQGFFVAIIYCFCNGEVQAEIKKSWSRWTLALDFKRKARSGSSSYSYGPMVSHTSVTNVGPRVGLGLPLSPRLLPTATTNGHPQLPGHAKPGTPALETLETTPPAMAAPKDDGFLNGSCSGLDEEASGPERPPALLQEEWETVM
Put plainly: GloSensor cAMP signaling assay in transiently transfected GS-22a cells. Type of assay: cell-based. To be noted: Table 1, cAMP-dependent peak luminescence, mean ± SEM of five experiments. The protocol: GS‐22a cells are derived from HEK293 cells (American Type Culture Collection [ATCC], Manassas, VA, USA; CRL‐1573) by stably transfection with the luciferase‐based GloSensor (Promega, San Luis Obispo, CA, USA) cAMP reporter plasmid pGloSensor‐22F. The cells were cultured in Dulbecco's modified Eagle medium (DMEM) supplemented with fetal bovine serum (10%) in a humidified incubator containing 5% CO2 and set at 37°C, and seeded into 96‐well or six‐well plates for transient DNA transfection and functional assays. […]
PTH1R‐mediated cAMP signaling was assessed via the GloSensor cAMP reporter in GS‐22a cells in white 96‐well plates. […] For each plate, the media was replaced with CO2‐independent media (Thermo Fisher Scientific; Cat. No. 18045088) containing luciferin (0.5mM) and the plate was placed into a PerkinElmer Envision plate reader and cAMP‐dependent luminescence, as counts per second (cps), was measured at 2‐minute intervals for 15 minutes, during which time luciferin uptake occurred and luminescence reached a near steady‐state baseline. The plate was then removed from the plate reader, media (vehicle) or test ligands were added at varying concentrations, and luminescence was again measured at 2‐minute intervals for an additional 30–60 minutes. […]

`CC[C@H](C)[C@H](NC(=O)[C@H](CCC(=O)O)NC(=O)[C@H](CO)NC(=O)[C@@H](NC(=O)[C@@H](N)CO)C(C)C)C(=O)N[C@@H](CCC(N)=O)C(=O)N[C@@H](CC(C)C)C(=O)N[C@@H](CCSC)C(=O)N[C@@H](Cc1cnc[nH]1)C(=O)N[C@@H](CC(N)=O)C(=O)N[C@@H](CC(C)C)C(=O)NCC(=O)N[C@@H](CCCCN)C(=O)N[C@@H](Cc1cnc[nH]1)C(=O)N[C@@H](CC(C)C)C(=O)N[C@@H](CC(N)=O)C(=O)N[C@@H](CO)C(=O)N[C@@H](CCSC)C(=O)N[C@@H](CCC(=O)O)C(=O)N[C@@H](CCCNC(=N)N)C(=O)N[C@H](C(=O)N[C@@H](CCC(=O)O)C(=O)N[C@@H](Cc1c[nH]c2ccccc12)C(=O)N[C@@H](CC(C)C)C(=O)N[C@@H](CCCNC(=N)N)C(=O)N[C@@H](CCCCN)C(=O)N[C@@H](CCCCN)C(=O)N[C@@H](CC(C)C)C(=O)N[C@@H](CCC(N)=O)C(=O)N[C@@H](CC(=O)O)C(=O)N[C@H](C(=O)N[C@@H](Cc1cnc[nH]1)C(=O)N[C@@H](CC(N)=O)C(=O)N[C@@H](Cc1ccccc1)C(N)=O)C(C)C)C(C)C` [PTH(1‐34), human(h)PTH(1‐34)] gave an EC50 of 3.47 nM.

The record behind these values is PMC9189904, “Functional Properties of Two Distinct PTH1R Mutants Associated With Either Skeletal Defects or Pseudohypoparathyroidism” (JBMR Plus, 2022).
